Shown are actives, neighbours in structure and some others; about 1.7% of the full set was active somewhere.
DYRK1A inh = Dyrk1A (rat) kinase inhibition; Q63470; ADP-Glo luminescence, NFATc1 peptide; inhibition, % at 12.5 µM; 310,000 compounds, 0.43% hits; AID 504441; in the data active = inhibition above about 50%;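 also: plate controls were vehicle with enzyme for no effect and no enzyme for full effect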
CAL PDZ FP-1 = blocks peptide binding to the human CAL PDZ domain; Q9HD26; purified CAL PDZ, TMR-peptide fluorescence polarization, 1 h; inhibition, % at 24.9 µM; 300,000 compounds, 0.92% hits;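 active = mean inhibition of at least 30% with at least half of replicates also reaching 30%; inconclusive = no clear call, values can overlap the other calls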;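 also: 0% = DMSO neutral control and 100% = excess unlabeled competitor peptide PRC23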
CDK5 p35 inh = blocks human CDK5/p35 kinase activity; Recombinant CDK5/p35, ADP-Glo luminescence, 60 min; 330,000 compounds, 0.01% hits; inhibition, % at 10 µM; AID 488839;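 active = highest replicate inhibition of at least 50% and at least 75% of replicates reaching 50%; inconclusive = only one of the two criteria met; inactive = both criteria failed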;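 also: plate controls were DMSO neutral control for no effect and GW8510 at 10 µM for full effect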
dFosB act-1 = mouse delta FosB homodimer activation; P13346; purified delta FosB, TAMRA-CDK5 oligo fluorescence polarization; percent of positive-control signal above neutral wells; activation, % at 25 µM; 340,000 compounds, 0.99% hits;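 active = mean activation above about 17%, with every replicate also reaching it, limit read from the data, passing the limit was not always enough; inconclusive = only one of the two conditions met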
Yeast UUG start = modulators of start codon recognition fidelity in yeast; S. cerevisiae UUG-firefly luciferase reporter, luminescence/redox ratio; activity score, % at 18.7 µM; hit rate 0.13% among 350,000; AID 602363;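 active = replicate mean at a twofold rise or more, about +100% in these data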;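 note: firefly luciferase made from a UUG start codon reports start codon fidelity; reporter light over untreated wells divided by growth signal over untreated wells; some hits fall short of that in this replicate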
CAL PDZ FP-2 = human CAL PDZ-peptide interaction inhibition; inhibition, % at 20 µM; 330,000 compounds, 0.02% hits; purified CAL PDZ, TMR-peptide fluorescence polarization, 1 h;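 active = highest replicate inhibition of at least 40%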;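 also: plate controls were DMSO neutral control wells for no effect and unlabeled competitor peptide control wells for full effect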
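Assay system – tagged CAL PDZ protein CerCALP, purified · Timing – 1 h at RT · Compound – single point, 20 µM · Measured by – fluorescence polarization from S- and P-plane intensities, G-factor corrected · Evaluation – inhibition from polarization loss · Probe or stimulus – TMR reporter peptide T*-PRC34 · Buffer or medium – pH 7.4 phosphate-saline buffer, reducing agent, detergent, IgG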
dFosB act-2 = activators of mouse delta FosB homodimer DNA binding | 2,400 tested, under 10 active | AID 588690 | shares compounds with dFosB act-1 | activation, % at 24.9 µM | purified delta FosB, TAMRA-CDK5 oligo fluorescence polarization; normalised: neutral wells 0, positive control 100;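 active = highest replicate activation at or above 34% and every replicate reaching that threshold; inconclusive = meets only one of the two criteria; inactive = meets neither criterion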;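 also: higher polarization means more probe DNA bound by delta FosB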
* marks the source's active call; other numbers are inactive results; ? = inconclusive; . = not tested or not shown.

SMILES | DYRK1A inh | CAL PDZ FP-1 | CDK5 p35 inh | dFosB act-1 | Yeast UUG start | CAL PDZ FP-2 | dFosB act-2
O=C(NC(NC(=O)c1c(F)cccc1F)c1ccc([N+](=O)[O-])cc1)c1c(F)cccc1F | -4.1 | -6.1 | 1.7 | 23.9* | -10.4 | -0.6 | 5.2
C[C@@H]1CCCCO[C@H](CN(C)C(=O)Nc2ccc(C(F)(F)F)cc2)[C@H](C)CN([C@@H](C)CO)C(=O)c2cc(NC(=O)C3CCCCC3)ccc2O1 | . | . | . | . | -7.5 | . | .
COc1ccc(CSCC(=O)N/N=C/c2ccc(OCC(=O)N3CCCCC3)cc2)cc1 | -3.2 | 0.0 | 0.0 | -2.7 | 6.2 | -2.1 | .
Cc1ccc(CSCC(=O)N/N=C/c2ccc(OCC(=O)Nc3ccc(C)cc3)cc2)cc1 | 1.6 | -0.2 | 0.9 | 27.5* | 0.5 | -0.2 | 8.8
CC(=O)Cc1nsc(NC(=O)c2ccc(-c3cccc(C(F)(F)F)c3)o2)n1 | 5.8 | -3.2 | -0.4 | -10.5 | -1.1 | 0.4 | .
Cc1nnc(NC(=O)c2ccc(-c3cccc(C(F)(F)F)c3)o2)s1 | -5.6 | -5.6 | -0.4 | 30.4* | -2.1 | -3.7 | ?
CN(C)CCCNC(=O)C[C@H]1CC[C@H]2[C@H](COc3ccc(NC(=O)c4ccc5c(c4)OCO5)cc3C(=O)N2C)O1 | . | . | . | . | -6.4 | . | .
Cc1cc(=O)oc2cc(OCC(=O)Nc3nccs3)ccc12 | 1.1 | . | -1.5 | -2.4 | -9.2 | -2.9 | .
Cc1c(C)c2ccc(OCC(=O)Nc3nccs3)cc2oc1=O | -2.6 | 1.2 | -2.2 | 31.5* | -41.0 | -3.0 | 0.6
O=C(Nc1cccnc1)c1cc(-c2ccc(F)cc2)on1 | 7.9 | . | 0.8 | -6.5 | . | -2.8 | .
CC(=O)c1cccc(NC(=O)c2cc(-c3ccc(F)cc3)on2)c1 | -2.0 | . | -0.5 | 24.8* | 0.0 | -2.4 | 0.5
O=C(Nc1cccnc1)c1cc(-c2cccc(Cl)c2)on1 | -3.8 | -1.7 | 0.4 | 57.0* | -10.6 | -1.9 | 2.3
O=C(Nc1cccnc1Cl)c1cc(-c2ccc(F)cc2)on1 | 10.6 | . | 0.7 | 83.6* | -30.4 | -1.1 | 1.0
COc1ccc(-c2cc(C(=O)Nc3cccnc3Cl)no2)cc1 | 9.8 | . | -1.6 | 13.2 | -13.3 | -1.3 | .
Cc1noc(C)c1S(=O)(=O)Nc1ccc2c(c1)C(=O)N([C@H](C)CO)C[C@H](C)[C@H](CN(C)C(=O)Nc1ccc3c(c1)OCO3)O2 | . | . | . | . | 2.2 | . | .
CCCC(=O)Nc1ccc2c(c1)C(=O)N(C)[C@H]1CC[C@@H](CC(=O)NCc3ccccc3Cl)O[C@H]1CO2 | . | . | . | . | 20.4 | . | .
CCCCn1c(SCC(=O)c2ccc(OC)c(OC)c2)nc2cc(S(N)(=O)=O)ccc21 | 0.8 | . | -0.6 | 23.0* | . | -2.1 | 0.2
CCCCn1c(SCC(=O)c2ccc(OCC)cc2)nc2cc(S(N)(=O)=O)ccc21 | -5.9 | -2.6 | -1.4 | -7.7 | -3.9 | -2.0 | .
O=C(C1CCC1)N1CCCCN2[C@@H](CO)[C@H](c3ccc(C#CC4CCCC4)cc3)[C@@H]2C1 | . | . | . | . | 5.9 | . | .
CCOc1ccc(NC(=O)CC2C(=O)N(c3ccc(OC)c(Cl)c3)C(=S)N2C2CC2)cc1 (configuration not stated) | -0.1 | -4.6 | 0.9 | 28.4* | -5.6 | -2.3 | 5.6
CCOc1ccc(NC(=O)CC2C(=O)N(c3ccc(OC)cc3)C(=S)N2Cc2ccccn2)cc1 (configuration not stated) | 0.4 | -2.9 | -0.4 | -3.6 | -13.5 | -0.4 | .
COc1ccc(N2C(=O)C(CC(=O)Nc3ccc(Cl)cc3)N(NC(=O)c3cccc(F)c3)C2=S)cc1 (configuration not stated) | -3.0 | 2.4 | 0.5 | 25.2* | -20.4 | -0.4 | -6.1
O=S(=O)(c1ccc(Cl)cc1)N1CCCc2ccccc21 | 0.5 | . | 0.5 | -2.5 | -22.1 | -2.1 | .
O=S(=O)(c1ccc(Cl)cc1)N1CCc2ccccc21 | 2.7 | -0.4 | -1.4 | 17.7* | -8.2 | -1.0 | -10.5
COc1ccc(NC(=O)N(C)C[C@H]2Oc3ccc(NS(=O)(=O)c4cn(C)cn4)cc3CC(=O)N([C@H](C)CO)C[C@@H]2C)cc1 | . | . | . | . | 0.0 | . | .
Cc1cc(NC(=O)CSc2nnc(COc3cccc(C)c3C)n2Cc2ccco2)no1 | 11.8 | -2.2 | 0.5 | -4.5 | . | -1.6 | .
C=CCn1c(COc2ccccc2F)nnc1SCC(=O)Nc1cc(C)on1 | -0.9 | -0.3 | -1.0 | 18.4* | . | -2.1 | ?
CC1Nc2ncnc(N3CCc4ccccc4C3)c2N(Cc2ccc(Br)cc2)C1=O (configuration not stated) | -0.4 | 2.2 | 0.3 | 51.0* | -8.0 | -0.4 | -1.3
CC1Nc2ncnc(N3CCc4ccccc4C3)c2N(Cc2ccc(Cl)cc2)C1=O (configuration not stated) | 5.1 | 0.5 | 0.2 | ? | -8.5 | -1.5 | .
CS(=O)(=O)c1ccc2nc(NC(=O)c3cc(-c4ccccc4)nn3-c3ccccc3)sc2c1 | -1.4 | -2.3 | -2.6 | 29.2* | -10.5 | -3.9 | 7.2

Of the compounds above, these have two or more sulfur atoms.
SMILES | DYRK1A inh | CAL PDZ FP-1 | CDK5 p35 inh | dFosB act-1 | Yeast UUG start | CAL PDZ FP-2 | dFosB act-2
CCCCn1c(SCC(=O)c2ccc(OC)c(OC)c2)nc2cc(S(N)(=O)=O)ccc21 | 0.8 | . | -0.6 | 23.0* | . | -2.1 | 0.2
CCCCn1c(SCC(=O)c2ccc(OCC)cc2)nc2cc(S(N)(=O)=O)ccc21 | -5.9 | -2.6 | -1.4 | -7.7 | -3.9 | -2.0 | .
CS(=O)(=O)c1ccc2nc(NC(=O)c3cc(-c4ccccc4)nn3-c3ccccc3)sc2c1 | -1.4 | -2.3 | -2.6 | 29.2* | -10.5 | -3.9 | 7.2

Only DYRK1A inh, CAL PDZ FP-2 and dFosB act-1, for some of the entries so far:
Structure | DYRK1A inh | CAL PDZ FP-2 | dFosB act-1
CCOc1ccc(NC(=O)CC2C(=O)N(c3ccc(OC)c(Cl)c3)C(=S)N2C2CC2)cc1 (configuration not stated) | -0.1 | -2.3 | 28.4*
CCOc1ccc(NC(=O)CC2C(=O)N(c3ccc(OC)cc3)C(=S)N2Cc2ccccn2)cc1 (configuration not stated) | 0.4 | -0.4 | -3.6

(listing goes on)
SMILES | DYRK1A inh | CAL PDZ FP-1 | CDK5 p35 inh | dFosB act-1 | Yeast UUG start | CAL PDZ FP-2 | dFosB act-2
CS(=O)(=O)c1ccc2nc(NC(=O)C3=NN(c4ccccc4)C(=O)CC3)sc2c1 | 11.1 | -3.9 | 0.0 | -10.0 | 3.5 | -1.2 | .
O=C(NC(=S)Nc1ccc2oc(=O)ccc2c1)c1cccc(Cl)c1 | 17.7 | -2.1 | -0.1 | 87.8* | -3.3 | -2.0 | 0.2
C[C@H]1CN([C@@H](C)CO)C(=O)c2cc(NC(=O)C3CC3)ccc2O[C@H]1CN(C)S(=O)(=O)c1ccc(F)cc1 | . | . | . | . | 12.9 | . | .
NNc1nc(Nc2ccccc2)nc(Nc2ccccc2)n1 | -23.1 | 1.4 | 0.0 | 46.4* | -0.7 | -2.9 | -6.8
COc1ccc(Nc2nc(NN)nc(Nc3ccc(OC)cc3)n2)cc1 | -6.9 | 2.3 | 1.1 | 24.9* | -16.5 | 0.0 | 1.5
COc1ccc(Nc2ccc(OC)cc2)cc1 | . | . | . | . | -12.2 | . | .
Cc1ccc(-c2cc(C(=O)Nc3ccc(S(=O)(=O)Nc4ncccn4)cc3)[nH]n2)c(O)c1C | -0.7 | 1.2 | 1.9 | 13.2 | -16.8 | -4.3 | .
CC(=O)Nc1ccc(NC(=O)c2cc(-c3ccc(C)c(C)c3O)n[nH]2)cc1 | -1.5 | -5.2 | 0.5 | 68.2* | -12.8 | -2.4 | 0.1
Cc1noc(C)c1S(=O)(=O)Nc1ccc2c(c1)C(=O)N([C@@H](C)CO)C[C@H](C)[C@@H](CN(C)Cc1ccc3c(c1)OCO3)OCCCC[C@@H](C)O2 | . | . | . | . | 32.8 | . | .
COCCn1c(N)c(N(Cc2ccccc2)C(=O)c2ccc(-c3ccc(Cl)cc3)o2)c(=O)[nH]c1=O | 12.1 | 2.0 | -0.2 | 23.2* | 1.0 | -1.0 | 0.7
C[C@@H]1CCCCO[C@H](CN(C)C(=O)Nc2ccc(C(F)(F)F)cc2)[C@H](C)CN([C@H](C)CO)C(=O)c2cc(NS(C)(=O)=O)ccc2O1 | . | . | . | . | -12.5 | . | .
CCCc1cc(=O)[nH]c(SCC(=O)Nc2ccc(C)cc2)n1 | 0.6 | 1.3 | -0.2 | 3.7 | . | -2.1 | .
